Measured values as given in PubChem BioAssay AID504326 (The Scripps Research Institute Molecular Screening Center, 2011).
Only a part is listed here, and it is no random draw. The source made the active and inactive calls. Rule as the data show it: active = activation above about 18%; inactive = the rest.

By UniProt entry, the sequences of proteins in these tests, tags left out.
UniProt P35372, whole entry, looked up: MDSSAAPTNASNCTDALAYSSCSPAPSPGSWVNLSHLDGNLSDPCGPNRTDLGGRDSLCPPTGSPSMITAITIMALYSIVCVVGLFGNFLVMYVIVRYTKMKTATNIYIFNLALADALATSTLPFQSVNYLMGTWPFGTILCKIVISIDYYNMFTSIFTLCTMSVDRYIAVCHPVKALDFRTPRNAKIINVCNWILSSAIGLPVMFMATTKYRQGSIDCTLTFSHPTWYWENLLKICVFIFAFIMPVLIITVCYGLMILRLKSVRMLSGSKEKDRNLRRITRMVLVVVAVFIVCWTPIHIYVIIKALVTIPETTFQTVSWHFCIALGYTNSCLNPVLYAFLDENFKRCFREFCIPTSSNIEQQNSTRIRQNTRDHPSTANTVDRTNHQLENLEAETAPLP
UniProt P41143, whole entry, looked up: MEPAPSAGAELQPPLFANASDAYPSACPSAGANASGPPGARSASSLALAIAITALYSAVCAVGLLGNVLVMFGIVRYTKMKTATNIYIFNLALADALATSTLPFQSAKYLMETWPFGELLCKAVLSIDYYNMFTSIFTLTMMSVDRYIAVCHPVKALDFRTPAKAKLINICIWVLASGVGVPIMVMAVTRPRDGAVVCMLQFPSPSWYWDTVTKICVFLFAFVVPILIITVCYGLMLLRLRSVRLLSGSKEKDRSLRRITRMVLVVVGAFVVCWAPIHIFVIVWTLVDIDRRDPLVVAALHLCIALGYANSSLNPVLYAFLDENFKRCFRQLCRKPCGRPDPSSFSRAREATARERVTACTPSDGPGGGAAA

Each molecule was assayed against Mu-type opioid receptor (Homo sapiens) + Delta-type opioid receptor (Homo sapiens) (UniProt P35372+P41143) (assay: inducers of mu-delta opioid receptor heterodimers – cell-based, luminescence, primary screen (AID 504326;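 also: 0% = vehicle-treated cells and 100% = reference agonist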)). Details: cells, OPRM1-OPRD1 heterodimerization, at 9.3 µM, active compounds read high.

SMILES | activation
CCC(=O)Nc1nc2ccccc2n1CCN1CCOCC1 | inactive: -2.02%
Cn1c(=O)c2c(ncn2CC(=O)Nc2nc3ccc(F)cc3s2)n(C)c1=O | inactive: -1.51%
CN(C(=O)Cc1ccc(Cl)c(Cl)c1)[C@H]1CCCC[C@@H]1N1CCCC1 | inactive: 0.59%
c1ccc(CN2CCC(Nc3nc(-c4cccs4)nc4ccccc34)CC2)cc1 | inactive: 5.83%
Cc1ccc(NP(=O)(Oc2ccccc2F)Oc2ccccc2F)nc1 | inactive: -0.93%
Cc1cccc(NC(=O)Cn2c(=O)n(C)c3ccccc32)c1 | inactive: -3.41%
COc1ccc(NC2CCN(C3CC(=O)N(c4ccc(F)c(Cl)c4)C3=O)CC2)cc1 (stereo unspecified) | inactive: 2.5%
O=C(Cn1c(COc2ccccc2)nc2ccccc21)Nc1cccc(Cl)c1 | active: 22.8%
C[C@@H](NC(=O)Cn1cnc2c(NCc3ccccc3)ncnc21)c1cccc2ccccc12 | inactive: -4.48%
CCCCOC(=O)Cn1c(=N)n(CCN(CC)CC)c2ccccc21 | inactive: -4.49%
CC(=O)Nc1ccc([As](=O)(O)O)cc1 | inactive: -0.27%
Cn1c(=O)c2ncn(CC(=O)Nc3ccc4c5c(cccc35)CC4)c2n(C)c1=O | inactive: -0.3%
CCOc1cccc(N2C(=O)CC(n3cnc4ccccc43)C2=O)c1 (stereo unspecified) | inactive: -1.37%
Cc1ccc2c(c1)C1CN(C)CCC1N2C(=O)c1ccccc1NS(=O)(=O)c1ccc(F)cc1 (stereo unspecified) | inactive: -1.04%
O=C(Cn1c(NCCO)nc2ccccc21)NCC(F)(F)F | inactive: -2.58%
O=C(O)c1ccccc1[As](=O)(O)O | inactive: -2.65%
O=C(Cn1c(COc2ccccc2)nc2ccccc21)Nc1cc(Cl)cc(Cl)c1 | inactive: 0.61%
Cn1c(=O)n(CCN2CCOCC2)c(=O)c2c1nc1n2CCN1c1ccc(Oc2ccccc2)cc1 | inactive: 0.3%
COc1ccc(N2CCN(C(=O)Cn3cnc4c3c(=O)n(C)c(=O)n4C)CC2)cc1 | inactive: -1.05%
CCCC1OP(N)(=O)OCC1CC (stereo unspecified) | inactive: -0.6%
Cn1c(=O)c2c(ncn2CC(=O)NC[C@H]2O[C@@H](n3cnc4c(N)ncnc43)[C@H](O)[C@@H]2O)n(C)c1=O | inactive: -3.17%
CC(C)[C@H](NC(=O)N1CCn2c1nc1ccccc12)C(=O)NCc1ccccc1Cl | inactive: 0.56%
COc1ccc(CN(C)C(=O)Cn2cnc3c(OCc4ccccc4)ncnc32)cc1OC | inactive: -2.99%

SMILES | activation
O=C(Cn1cnc2ccccc21)NCc1ccccc1 | inactive: -0.99%
Cc1ccc(C)c(S(=O)(=O)N2CCN(C(=O)Cn3c(C(F)(F)F)nc4ccccc43)CC2)c1 | inactive: -1.35%
Cc1ccc(-c2csc(NCCn3c(-c4ccncc4)nc4ccccc43)n2)cc1 | inactive: -0.45%
Cc1ccc(CNC(=O)Cn2cnc3c(NCc4ccccc4)ncnc32)o1 | inactive: -4.65%
CCOC(=O)c1ccccc1NC(=O)Cn1c(-c2nonc2N)nc2ccccc21 | inactive: -1.31%
CC(C)NC(=O)CC1C(=O)N(Cc2ccccc2)C(C)c2nc3ccccc3n21 (stereo unspecified) | inactive: -3.14%
C(=N\c1nc2ccccc2n1CCN1CCCCC1)/c1ccc2c(c1)OCO2 | inactive: -0.33%
O=C(Cn1c(Cc2ccccc2)nc2ccccc21)NCc1ccc2c(c1)OCO2 | inactive: -0.73%
O=P(Nc1nc2ccc(Cl)cc2s1)(c1ccccc1)c1ccccc1 | inactive: -2.26%
COC(=O)C1=C(C)N=C2SCCC(=O)N2C1/C=C/c1ccccc1 (stereo unspecified) | inactive: -1.83%
COC(=O)c1ccc(CNC(=O)Cn2cnc3c(OCc4ccccc4)ncnc32)cc1 | inactive: -2.2%
O=C(Cn1cnc2c(NCc3ccccc3)ncnc21)NCc1nc2ccccc2[nH]1 | inactive: -2.14%
CC1CCN(C(=O)Cn2c(SCC(=O)Nc3nccs3)nc3ccccc32)CC1 | inactive: -0.27%
CCOc1ccc(C(O)Cn2c(=N)n(CCN3CCCCC3)c3ccccc32)cc1 (stereo unspecified) | inactive: -2.05%
Cn1c(=O)c2ncn(CC(=O)NCCC3=CCCCC3)c2n(C)c1=O | inactive: -0.29%
Cn1c(=O)c2c(ncn2CC(=O)N2CCN(S(=O)(=O)c3ccc(F)cc3)CC2)n(C)c1=O | inactive: -2.64%
CCCn1c(=O)[nH]c(=O)c2c1nc(-c1ccccc1)n2CCN1CCOCC1 | inactive: -1.62%
CCCCC(=O)N/N=C(C)/C=C/c1ccccc1F | inactive: 3.04%
CCN(CC)CCn1c(/N=C/c2cc(Br)ccc2O)nc2ccccc21 | inactive: -1.09%
CC1CCCC(C)N1C(=O)Cn1c(SCC(=O)NCc2ccc3c(c2)OCO3)nc2ccccc21 (stereo unspecified) | inactive: 0.46%
O=C(Cn1c(-c2cscn2)nc2ccccc21)Nc1ccc(Cl)cc1 | inactive: -0.67%
S=C=Nc1cccc(C2(N3CCCCC3)CCCCC2)c1 | inactive: 1.41%
CCC(=O)Nc1ccc2c(c1)nc1n2CCN(CCOC)C1 | inactive: -0.61%

SMILES | activation
O=C(c1cccc(Cl)c1)N1CCn2c1nc1ccccc12 | inactive: -3.39%
C=CCOC(=O)C1=C(C)N=C2SCCC(=O)N2C1/C=C/c1ccccc1OC (stereo unspecified) | inactive: -0.8%
CCCCNc1nc2ccccc2n1CC(=O)N1CCc2ccccc2C1 | inactive: -2.22%
COc1ccc(C)cc1S(=O)(=O)N1c2ccc(C)cc2C2CN(C)CCC21 (stereo unspecified) | inactive: -0.76%
Cc1n[nH]c(C)c1CCC(=O)N/N=C/C=C/c1ccccc1 | inactive: -1.12%
O=C1Cn2c(nc3ccccc32)N1c1ccccc1F | inactive: -0.86%
N=c1n(CCCOc2ccc(F)cc2)c2ccccc2n1CC(N)=O | inactive: -3.13%
O=C(Cn1cnc2c(OCc3ccccc3)ncnc21)NCCN1CCOCC1 | inactive: -3.93%
CCc1cccc(CC)c1NC(=O)Cn1c(-c2ccccc2Cl)nc2ccccc21 | inactive: 0.56%
COCCCNC(=O)CC1C(=O)N(Cc2ccccc2)C(C)c2nc3ccccc3n21 (stereo unspecified) | inactive: -3.09%
CCCCCCNCCn1cnc2c(N)ncnc21 | inactive: -1.75%
O=C(Nc1nc2ccccc2n1CCN1CCOCC1)c1ccc(Cl)cc1 | inactive: 0.43%
Nc1cc(N)c2nonc2c1[N+](=O)[O-] | inactive: 1.88%
O=C(Cn1cnc2c(NCc3ccccc3)ncnc21)NCCN1CCOCC1 | inactive: -2.63%
CN(C)CCn1c(COc2ccccc2)nc2ccccc21 | inactive: -2.25%
Cc1ccccc1C(=O)Nc1cccc(NC(=O)Cn2cnc3c(=O)n(C)c(=O)n(C)c32)c1 | inactive: -0.91%
N=c1n(CCOc2ccccc2)c2ccccc2n1CCN1CCOCC1 | inactive: -3.75%
CC(C)CC(=O)NC(Sc1ccc(Cl)cc1)C(Cl)(Cl)Cl (stereo unspecified) | inactive: 3.4%
CSCC[C@H](NC(=O)N1CCn2c1nc1ccccc12)C(=O)NCc1ccc(C)cc1 | inactive: 0.51%
CCN(C(=O)Cn1cnc2c1c(=O)n(C)c(=O)n2C)C1CCS(=O)(=O)C1 (stereo unspecified) | inactive: -2.97%
CCN(C(=O)Cn1cnc2c1c(=O)n(C)c(=O)n2C)C1CCCCC1 | inactive: -3.41%
CCC(=O)N1c2ccc(S(=O)(=O)CCC(=O)N3CCn4c3nc3ccccc34)cc2CC1C (stereo unspecified) | inactive: 1.04%
Oc1ccccc1CNc1ccccn1 | inactive: 1.28%

SMILES | activation
COCCN1CCn2c(nc3cc([N+](=O)[O-])ccc32)C1 | inactive: 0.06%
Cc1ccc(-c2csc(N3CCN(c4cc5c(cc4Cl)nc(-c4ccncc4)n5CCN4CCCCC4)CC3)n2)cc1 | inactive: -0.63%
CC(C)[C@H](NC(=O)N1CCn2c1nc1ccccc12)C(=O)NCC1CCCO1 (stereo partly specified) | inactive: -1.84%
O=C(NC(Sc1ccncn1)C(Cl)(Cl)Cl)c1ccccc1 (stereo unspecified) | inactive: -1.93%
Cn1c(=O)c2c(ncn2CC(=O)Nc2cc(S(=O)(=O)N3CCCCC3)ccc2O)n(C)c1=O | inactive: -3.33%
Nc1ncnc2c1ncn2CCN1CCCCC1 | inactive: -1.54%
O=C(Cn1c(CO)nc2ccccc21)NCCc1ccc(F)cc1 | inactive: -1.06%
CN1CC[C@]2(CCN3CCc4c(oc5ccccc45)[C@@H]3C2)N(C)C1=O | inactive: -1.53%
COc1ccccc1OP(=O)(Nc1ccc(C)cn1)Oc1ccccc1OC | inactive: -3.63%
CN1CCN(CCN2CCn3c2nc2ccccc23)CC1 | inactive: -3.1%
CCC(C)(C)n1nnnc1CN1CCC(n2c(C)nc3cc(C(F)(F)F)ccc32)CC1 | inactive: 3.99%
Cc1nc2cc(F)ccc2n1C1CCN(Cc2nnnn2CCc2ccccc2)CC1 | inactive: -2.63%
O=C1Cn2c(nc3ccccc32)N1c1cccc(C(F)(F)F)c1 | inactive: 2.18%
COc1ccc(C(=O)CSc2nc3ccccc3n2CC(=O)NC(C)(C)C)cc1 | inactive: -0.83%
CCOc1cc(N2CCOCC2)c(OCC)cc1NC(=O)Cn1cnc2c(=O)n(C)c(=O)n(C)c21 | inactive: -1.44%
COc1ccc(CNC(=O)CCCCCNC(=O)N2CCn3c2nc2ccccc23)cc1 | inactive: -2.78%
CN1CCCC(OC(=O)C(c2ccccc2)c2ccccc2)C1 (stereo unspecified) | inactive: -0.97%
CCCCOC(=O)Cn1c(=N)n(CCN2CCOCC2)c2ccccc21 | inactive: -2.43%
O=C(Cn1c(NCCO)nc2ccccc21)NCCc1ccccc1 | inactive: 0.74%
Cc1ccc(/C=N/NC(=O)Cn2cnc3ccccc32)cc1 | inactive: -3.03%
Clc1ccc(Cl)c(NC2=NCC(CBr)S2)c1 (stereo unspecified) | inactive: -0.53%
CCC(C(=O)NC1CCCCC1)n1c(SCc2ccc(F)cc2)nc2ccncc21 (stereo unspecified) | inactive: 0.7%
